pIC50: −log10 of the molar value.
Legend:
Collagenase 3 = Collagenase 3 (Homo sapiens, UniProt P45452); experiment: In vitro inhibitory activity against matrix metalloprotease-13 (MMP-13)
[1] = molecular target: Matrix metalloproteinase-9 (Homo sapiens, UniProt P14780); experiment: In vitro inhibitory activity against matrix metalloprotease-9 (MMP-9)
Interstitial collagenase = molecular target: T1, Interstitial collagenase (Homo sapiens, UniProt P03956); experiment: In vitro inhibitory activity against matrix metalloprotease-1 (MMP-1)
T1 sequence (P03956 whole entry): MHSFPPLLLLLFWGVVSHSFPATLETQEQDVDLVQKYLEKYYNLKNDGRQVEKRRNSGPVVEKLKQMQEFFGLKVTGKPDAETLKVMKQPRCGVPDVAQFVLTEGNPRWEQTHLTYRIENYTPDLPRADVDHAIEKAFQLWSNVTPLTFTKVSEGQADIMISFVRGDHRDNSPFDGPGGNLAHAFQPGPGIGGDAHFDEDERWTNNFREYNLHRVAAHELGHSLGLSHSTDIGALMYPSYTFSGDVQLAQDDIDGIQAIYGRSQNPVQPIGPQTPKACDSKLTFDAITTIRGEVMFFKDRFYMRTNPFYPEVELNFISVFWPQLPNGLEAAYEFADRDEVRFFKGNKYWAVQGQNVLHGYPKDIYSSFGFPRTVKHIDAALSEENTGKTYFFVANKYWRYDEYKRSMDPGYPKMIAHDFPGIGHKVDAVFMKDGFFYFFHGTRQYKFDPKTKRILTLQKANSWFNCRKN
Summary of the method: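 Recombinant human MMP-1 expressed in E. coli BL21(DE3), refolded from inclusion bodies, affinity-purified and trypsin-activated. 10 nM enzyme incubated with 8 µM Mca-Pro-Leu-Gly-Leu-Dpa-Ala-Arg-NH2 in 50 mM Tris-HCl, 10 mM CaCl2, 0.15 M NaCl, 0.05% Brij, 20-30 min, 37 °C, with varying inhibitor. Quenched with 50 mM EDTA; fluorescence read at ex 328/em 393 nm. Triplicates; IC50 from 4-parameter logistic fit.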

By UniProt entry, the sequences of proteins in these tests, tags left out. Where a name states a change or a piece, a line headed by the entry shows the natural chain unless it says otherwise.
UniProt P14780: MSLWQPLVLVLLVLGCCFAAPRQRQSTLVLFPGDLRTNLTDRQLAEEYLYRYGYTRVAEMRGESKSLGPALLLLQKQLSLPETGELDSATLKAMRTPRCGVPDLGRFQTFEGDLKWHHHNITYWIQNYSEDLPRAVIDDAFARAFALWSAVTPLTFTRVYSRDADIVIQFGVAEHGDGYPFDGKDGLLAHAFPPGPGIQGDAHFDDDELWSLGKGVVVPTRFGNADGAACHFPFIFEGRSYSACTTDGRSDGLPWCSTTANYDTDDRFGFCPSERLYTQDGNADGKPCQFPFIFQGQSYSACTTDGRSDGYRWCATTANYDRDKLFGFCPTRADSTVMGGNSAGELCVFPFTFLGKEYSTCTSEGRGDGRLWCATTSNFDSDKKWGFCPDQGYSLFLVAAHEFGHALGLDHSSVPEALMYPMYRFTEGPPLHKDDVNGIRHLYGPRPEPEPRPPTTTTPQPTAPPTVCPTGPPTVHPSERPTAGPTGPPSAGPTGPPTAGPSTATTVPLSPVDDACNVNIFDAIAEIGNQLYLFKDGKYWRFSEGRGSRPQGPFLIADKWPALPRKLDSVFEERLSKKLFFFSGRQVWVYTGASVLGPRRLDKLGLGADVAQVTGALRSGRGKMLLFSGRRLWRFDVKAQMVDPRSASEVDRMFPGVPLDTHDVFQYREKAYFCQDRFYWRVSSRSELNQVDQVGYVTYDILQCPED
UniProt P08254: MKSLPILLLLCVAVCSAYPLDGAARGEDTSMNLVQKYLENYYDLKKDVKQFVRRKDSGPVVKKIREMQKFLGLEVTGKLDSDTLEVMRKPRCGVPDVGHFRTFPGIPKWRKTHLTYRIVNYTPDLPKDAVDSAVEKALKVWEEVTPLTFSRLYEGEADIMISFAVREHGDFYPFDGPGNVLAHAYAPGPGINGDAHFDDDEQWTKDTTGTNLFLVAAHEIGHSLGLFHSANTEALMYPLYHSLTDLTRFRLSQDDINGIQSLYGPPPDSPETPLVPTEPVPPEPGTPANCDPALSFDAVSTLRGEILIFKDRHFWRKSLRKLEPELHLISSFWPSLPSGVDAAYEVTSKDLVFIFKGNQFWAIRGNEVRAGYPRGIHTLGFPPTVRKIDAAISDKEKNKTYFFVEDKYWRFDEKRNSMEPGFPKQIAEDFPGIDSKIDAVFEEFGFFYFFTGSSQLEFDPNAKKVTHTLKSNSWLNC

Stromelysin-1 = Stromelysin-1 (Homo sapiens, UniProt P08254); experiment: In vitro inhibitory activity against matrix metalloprotease-3 (MMP-3)

| Compound | pIC50 (Collagenase 3) | pIC50 (Interstitial collagenase) | also measured |
| --- | --- | --- | --- |
| CCCCCC(=O)N1CCN(S(=O)(=O)c2ccc(OC)cc2)C(C(=O)NO)C1 (configuration not stated) | 8.77 |  |  |
| COc1ccc(S(=O)(=O)N2CCN(C(=O)c3ccccc3)CC2C(=O)NO)cc1 (configuration not stated) | 8.52 |  | pIC50 [1]: 8.52 |
| COc1ccc(S(=O)(=O)N2CCN(C)CC2C(=O)NO)cc1 (configuration not stated) |  | 5.90 |  |
| COc1ccc(S(=O)(=O)N2CCN(C(=O)COc3ccccc3)CC2C(=O)NO)cc1 (configuration not stated) | 8.68 |  |  |
| CCCN(CC1CC1)C(=O)N1CCN(S(=O)(=O)c2ccc(OC)cc2)C(C(=O)NO)C1 (configuration not stated) |  | 6.31 |  |
| COc1ccc(S(=O)(=O)N2CCN(C(=O)OCc3ccccc3)CC2C(=O)NO)cc1 (configuration not stated) |  |  | pIC50 (Stromelysin-1): 7.74 |

Source: ChEMBL document CHEMBL1133577, “Design and synthesis of piperazine-based matrix metalloproteinase inhibitors” (J Med Chem, 2000)
